Tested on: IFN response genes (OAS-1, IFN-β)
Assay: Interferon response in vivo, intrahepatic OAS1 and IFNβ mRNA
Settings: 28 d post-administration, relative to saline control; poly I:C 6 h

Substance: Poly I:C
- intrahepatic OAS1 and IFNβ mRNA (activation of IFN response): significantly different
